From patent US8912343B2, “Solid forms of (1r,4r)-6′-fluoro-(N, N-dimethyl)-4-phenyl-4′,9′-dihydro-3′H-spiro[cyclohexane-1,1′-pyrano-[3,4,b]indol]-4-amine and sulfuric acid” (dated 2014)

Columns and labels:
[1] = Solubility in water (saturated solutions, concentration by HPLC); settings: RT
[2] = Physical and chemical stability (storage, purity by HPLC, PXRD)

Question: Which solubility ([1]; bidest H2O, saturated solution, 24 h equilibration time, HPLC) does the source give for `CN(C)[C@]1(c2ccccc2)CC[C@]2(CC1)OCCc1c3cc(F)ccc3[nH]c12` here?
Answer: <0.30 µg/mL

Question: What about the “resulting pH” value ([1]; pH of the saturated solution in bidest H2O, 24 h) of the same compound?
Answer: 8.4

Question: What about the “outcome of stability testing (summary)” value ([2]; 4 weeks 40° C./75% r.h. and 1 week 80° C.) of the same compound?
Answer: clearly changes

Question: And the “PXRD after 1 week at 80° C.” value ([2]; closed vials)?
Answer: new peaks

Question: What about the “Purity after 1 week at 80° C.” value ([2]; closed vials, HPLC) of the same compound?
Answer: 99.7 area %

Question: And the “PXRD after 4 weeks at 40° C., 75% r.h.” value ([2]; open vials)?
Answer: new peaks

Question: And the “Purity after 4 weeks at 40° C., 75% r.h.” value ([2]; open vials, HPLC)?
Answer: 99.5 area %

Question: What about the “Ref. Purity” value ([2]; reference, before storage, HPLC) of the same compound?
Answer: 99.7 area %
